Target: TsUCH37^cat (catalytic UCH domain of Trichinella spiralis UCH37, residues 1-226) (Trichinella spiralis)

For “UbAMC (ubiquitin aminomethylcoumarin) (from UniProt P0CG48 1-76)”, the KM of UbAMC hydrolysis (Michaelis-Menten fit; 7 nM enzyme, 30°C) was 1.08 µM.

From publication PMC3898853
